{"source": "patent US20220087987A1", "about": "“A METHOD FOR TREATING SWI/SNF COMPLEX-DEFICIENT CANCERS COMPRISING GLUTATHIONE (GSH) METABOLIC PATHWAY INHIBITOR” (National Cancer Center, priority 2018, published 2022)", "key": {"ARID1A-WT HCT116 cells [1]": {"test_system": "ARID1A-WT HCT116 cells", "assay": "Drug library screen, cell viability (CellTiter-Glo)", "conditions": "10 μM for 5 days, relative to cells treated with solvent (DMSO)"}, "ARID1A-WT HCT116 cells [2]": {"test_system": "ARID1A-WT HCT116 cells"}}, "note": "Where two headings read alike, the source gives them in different places.", "data": [{"compound": "O=C(Nc1ccc2c(O)cc(S(=O)(=O)O)cc2c1)Nc1ccc2c(O)cc(S(=O)(=O)O)cc2c1", "note": "[AMI-1]", "values": [{"measurement": "Cell viability, WT", "setting": "ARID1A-WT HCT116 cells [1]", "value": 88.42}]}, {"compound": "JAK3 Inhibitor VI", "values": [{"measurement": "Cell viability, WT", "setting": "ARID1A-WT HCT116 cells [2]", "value": 7.509}, {"measurement": "Cell viability, KO", "setting": "ARID1A-KO HCT116 cells", "value": 17.2416}]}, {"compound": "COC(=O)[C@H](CC(C)C)NC(=O)c1ccc(NC[C@@H](N)CS)cc1-c1ccccc1", "note": "[GGTI-286]", "values": [{"measurement": "Cell viability, WT", "setting": "ARID1A-WT HCT116 cells [1]", "value": 133.2565}]}]}
